This note sets out measurements from ChEMBL document CHEMBL1135324, “Quaternary salts of E2020 analogues as acetylcholinesterase inhibitors for the reversal of neuromuscular block” (Bioorg Med Chem Lett, 2002).

By UniProt entry, the sequences of proteins in these tests, tags left out. Where a name states a change or a piece, a line headed by the entry shows the natural chain unless it says otherwise.
UniProt P22303: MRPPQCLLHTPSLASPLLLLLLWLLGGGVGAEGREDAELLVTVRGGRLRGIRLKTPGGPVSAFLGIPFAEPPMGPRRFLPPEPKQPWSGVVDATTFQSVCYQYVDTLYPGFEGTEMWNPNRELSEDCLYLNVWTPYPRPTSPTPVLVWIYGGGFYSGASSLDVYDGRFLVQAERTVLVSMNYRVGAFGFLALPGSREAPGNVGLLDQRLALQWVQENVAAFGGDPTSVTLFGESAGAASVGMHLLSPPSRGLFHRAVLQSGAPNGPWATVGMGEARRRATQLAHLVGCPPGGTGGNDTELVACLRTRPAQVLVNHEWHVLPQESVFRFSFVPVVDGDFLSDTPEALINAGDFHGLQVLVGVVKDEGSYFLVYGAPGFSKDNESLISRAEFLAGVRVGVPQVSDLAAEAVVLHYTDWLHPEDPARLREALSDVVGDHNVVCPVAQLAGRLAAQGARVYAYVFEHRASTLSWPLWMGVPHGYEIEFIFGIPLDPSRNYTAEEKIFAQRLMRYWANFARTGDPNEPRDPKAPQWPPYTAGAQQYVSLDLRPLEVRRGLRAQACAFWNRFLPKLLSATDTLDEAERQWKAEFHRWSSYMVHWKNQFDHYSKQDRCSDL

pEC50, pIC50: −log10 of the molar value.

The target of experiment [1] is T1, Acetylcholinesterase (Homo sapiens, UniProt P22303).
In experiment [2] the target is T1, Acetylcholinesterase. As to the kind of experiment: In vitro inhibition of human recombinant AChE.

As a reminder, the pEC50 is −log10 of the EC50, conventionally taken in molar units. High values mean a small EC50, low ones a large EC50. The term pIC50 denotes the negative decadic logarithm of the IC50, by convention in mol/L. `O=C(CCC1CCN(Cc2ccccc2)CC1)c1ccc2c(c1)NCCCC2` [ZANAPEZIL]: the negative logarithm of the EC50 (pEC50) in experiment [1] was 5.94. Further, the pIC50 in experiment [2] was above 6.30.
